Tested on: PHD (HIFα prolyl hydroxylase)
Test: In vitro PHD activity (hydroxylation of in vitro-translated HA-ODDD by cell extracts, gel shift on SDS-PAGE)
Assay type: biochemical, human
Conditions: HeLa cell extracts, α-ketoglutarate 0.1 to 1 mM in presence of 1 mM succinate

**Q.** O=C(O)CCC(=O)C(=O)O [free α-ketoglutaric acid, 2-Oxo-pentanedioic acid] was tested. Which “PHD activity (production of hydroxylated HA-ODD)” value did it give?
**A.** Its value is “concentration-dependent stimulation of PHD activity”.

— patent US20090005437A1, “Alpha-Ketoglutarates and Their Use as Therapeutic Agents” (priority 2004, published 2009)
